Data from patent US7514257B2, “Zinc finger transcription factor differentiation proteins” (ToolGen, Inc., priority 2001, dated 2009).

Test system: C2C12 myoblasts
Assay: ALP staining for transdifferentiation of C2C12 myoblasts to osteoblasts
Type: cell-based, mouse
Settings: positive control, 1 μg/ml of BMP-2
Text: We screened for chimeric zinc finger proteins that induce transdifferentiation of C2C12 myoblasts to osteoblasts in the absence of BMP-2. We transiently transfected a nucleic acid library encoding chimeric zinc finger proteins into C2C12 cells and screened for cells that undergo transdifferentiation in the absence of BMP-2. Seven days after transfection, the transformed cells were stained for alkaline phosphatase (ALP), a marker for osteoblasts (Katagiri, T. et al., (1994) J. Cell. Biol. 127:1755).
For these experiments, the mouse myoblast cell line, C2C12, was maintained in Dulbecco's Modified Eagle's Medium (DMEM) with 4.5 g/L glucose, 10% FBS, and antibiotics, at 37° C., in a humidified atmosphere containing 95% air and 5% CO2. Cells were seeded at 1.0·10^4 cells per 96-well culture plates. The cells were transfected with 50 ng of library nucleic acid using LIPOFECTAMINE PLUS™ (Invitrogen) according to the manufacturer's protocol. Twenty-four hours after transfection, the growth medium was replaced with DMEM containing 2% FBS, and the cells were cultured for an additional six days.
To examine the differentiation of C2C12 cells to osteoblasts, ALP staining was performed as described in Katagiri, T. et al., (1994) J. Cell. Biol. 127:1755.

B1: BMP-2: bone morphogenic protein-2, positive control (protein, UniProt P12643 283-396, looked up)
Bone morphogenetic protein 2: QAKHKQRKRLKSSCKRHPLYVDFSDVGWNDWIVAPPGYHAFYCHGECPFPLADHLNSTNHAIVQTLVNSVNSKIPKACCVPTELSAISMLYLDENEKVVLKNYQDMVVEGCGCR
- cells strongly stained for ALP: ~100%
